Measurements: ChEMBL document CHEMBL1131908, “Delta opioid binding selectivity of 3-ether analogs of naltrindole” (Bioorg Med Chem Lett, 1999)

Protein sequences, listed by entry. Tags and fused reporters are not part of them.
UniProt P41143, whole entry, looked up: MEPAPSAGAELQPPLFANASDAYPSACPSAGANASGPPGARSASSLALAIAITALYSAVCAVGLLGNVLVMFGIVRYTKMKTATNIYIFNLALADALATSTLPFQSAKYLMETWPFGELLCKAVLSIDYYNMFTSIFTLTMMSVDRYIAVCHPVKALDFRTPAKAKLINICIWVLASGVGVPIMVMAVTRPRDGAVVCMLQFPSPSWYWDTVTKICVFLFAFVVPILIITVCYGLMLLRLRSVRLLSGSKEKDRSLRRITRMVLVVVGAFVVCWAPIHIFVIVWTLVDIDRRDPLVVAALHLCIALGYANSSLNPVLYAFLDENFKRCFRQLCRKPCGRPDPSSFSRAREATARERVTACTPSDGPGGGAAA
UniProt P35372, whole entry, looked up: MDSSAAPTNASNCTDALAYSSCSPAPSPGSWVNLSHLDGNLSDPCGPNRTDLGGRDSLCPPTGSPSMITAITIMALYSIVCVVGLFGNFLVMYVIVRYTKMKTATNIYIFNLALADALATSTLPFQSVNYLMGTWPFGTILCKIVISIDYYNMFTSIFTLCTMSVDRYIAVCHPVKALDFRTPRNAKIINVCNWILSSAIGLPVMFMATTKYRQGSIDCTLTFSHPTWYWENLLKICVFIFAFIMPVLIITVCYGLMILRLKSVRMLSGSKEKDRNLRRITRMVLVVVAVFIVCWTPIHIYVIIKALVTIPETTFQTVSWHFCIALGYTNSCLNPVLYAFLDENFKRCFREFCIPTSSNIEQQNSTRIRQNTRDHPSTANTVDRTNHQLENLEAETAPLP

Molecular target: Opioid receptors; mu & delta (Homo sapiens) (UniProt P41143+P35372)
Assay: Ratio of binding affinities of mu and delta opioid receptors
Type: protein assay

**Q.** Which Ratio does the source give for `Oc1ccc2c3c1O[C@H]1c4[nH]c5ccccc5c4C[C@@]4(O)[C@@H](C2)N(CC2CC2)CC[C@]314` [NALTRINDOLE] here?
**A.** Its Ratio is 120 and 52.

Values joined by “and” are separate entries in the source; they are usually repeats but may differ in a detail not shown here. Equal entries are not always repeated.
